Test results published in publication PMC7580997 (Journal of medicinal chemistry, 2019).

How the values were obtained:
Plasma stability = conditions: mouse plasma, 37 °C
[1] = Solubility and chemical stability in aqueous buffer by 1H 1D NMR; assay type: physicochemical; conditions: aqueous buffer pH = 7.5, T = 25 °C, 1H 1D NMR over time

| Structure (SMILES) | plasma stability (in words) (Plasma stability) | chemical stability in aqueous buffer [1] |
| --- | --- | --- |
| CN[C@@H](C)C(=O)NC(Cc1cc(C)c(C(F)(F)F)cc1F)C(=O)N1CCC[C@H]1C(=O)N[C@@H]1CCc2c(OS(=O)(=O)F)cccc21 (mixture of isomers) [Compound 3, (1R)-1-((2S)-1-(3-(2-fluoro-5-methyl-4-(trifluoromethyl)phenyl)-2-((S)-2-(methylamino)propanamido)propanoyl)pyrrolidine-2-carboxamido)-2,3-dihydro-1H-inden-4-yl sulfurofluoridate] | less soluble in plasma, but still long-lived |  |
| CN[C@@H](C)C(=O)N[C@H](C(=O)N1CCC[C@H]1C(=O)N[C@@H]1CCc2c(OS(=O)(=O)F)cccc21)C1CCCCC1 [Compound 2, (R)-1-((S)-1-((S)-2-cyclohexyl-2-((S)-2-(methylamino)propanamido)acetyl)pyrrolidine-2-carboxamido)-2,3-dihydro-1H-inden-4-yl sulfurofluoridate] |  | long-lived (several hours) |
